Assay results as given in patent publication US20170198196A1, “METHODS FOR CONTROLLING SOURING IN ENGINEERED SYSTEMS” (The Regents of the University of California, priority 2014, published 2017).

Legend:
[1] = test system: Desulfovibrio alaskensis G20; experiment: microbe, parasite or virus in culture; conditions: Oleidesulfovibrio alaskensis
[2] = test system: Desulfovibrio alaskensis G20 tn5::rex mutant
[3] = test system: Desulfovibrio alaskensis G20; conditions: for IC50: read-out: IC50 against growth of Desulfovibrio alaskensis G20
[4] = test system: Desulfovibrio alaskensis G20

Row | Compound | response of Rex mutants relative to wild-type G20, in words [2] | IC50 [3] | potency against sulfite grown cells relative to sulfate grown cells, in words [4] | other results
1 | F [fluoride ion, fluoride] |  |  |  | IC50 ([1]; G20, 48 h, read-out: IC50 against growth of Desulfovibrio alaskensis G20 (95% confidence interval)): 34000 µM
2 | [O]=[Mo](=[O])([O-])[O-] [molybdate] | equally potent inhibitors of Rex mutants and wild-type cells | 28.1 µM | less inhibitory to sulfite grown cells than sulfate grown cells | 
3 | O=[N+]([O-])O [nitrate] | resistant |  | less inhibitory to sulfite grown cells than sulfate grown cells | potency against pyruvate fermenting G20 relative to lactate/sulfate grown G20, in words [4]: less potent inhibitors of pyruvate grown G20 than lactate/sulfate grown G20
4 | O=NO [nitrite] |  |  | more inhibitory of sulfite reduction | IC50 values (in terms of growth inhibition), in words [3]: sub-millimolar
5 | [O-][Cl+3]([O-])([O-])O [perchlorate] |  |  |  | IC50 ([1]; G20, read-out: IC50 against growth of Desulfovibrio alaskensis G20): 23200 µM
6 | O=[Se](=O)(O)O [selenate] |  | 4 µM |  | 
7 | O=S(=O)(O)O [sulfate] |  |  |  | IC50 against growth of Desulfovibrio alaskensis G20 [3]: growth substrate
8 | O=S(O)O [sulfite] |  |  |  | IC50 against growth of Desulfovibrio alaskensis G20 [3]: growth substrate
9 | [O]=[W](=[O])([O-])[O-] [tungstate] | equally potent inhibitors of Rex mutants and wild-type cells | 63.3 µM |  | 
10 | (per)chlorate | resistant |  | less inhibitory to sulfite grown cells than sulfate grown cells | potency against pyruvate fermenting G20 relative to lactate/sulfate grown G20, in words [4]: less potent inhibitors of pyruvate grown G20 than lactate/sulfate grown G20
11 | chlorite |  | < 1000 µM |  | IC50 values (in terms of growth inhibition), in words [3]: sub-millimolar

Read-outs that look alike come from different tables or passages of the source.
